This assay has as its system KM12. As to the kind of experiment: Antiproliferative activity against human KM12 cells harbouring TRK assessed as reduction in cell viability. In kind it is functional.
For the compound `Cn1nc(C(C)(C)C)cc1NC(=O)Cc1ccc(Nc2ncnc3[nH]c4ccccc4c23)cc1`, the GC50 amounted to 270 nM.

On to `Cn1cc(-c2ccc3c(c2)[nH]c2ncnc(Nc4ccc(CC(=O)Nc5cc(C(C)(C)C)nn5C)cc4)c23)cn1`, for which the GC50 amounted to 250 nM.

With `Cn1cc(-c2ccc3c(c2)[nH]c2ncnc(Nc4ccc(CC(=O)Nc5cc(C(C)(C)C)on5)cc4)c23)cn1`, the GC50 is 670 nM.

Values taken from ChEMBL document CHEMBL5550150, “Discovery of 9H-pyrimido[4,5-b]indole derivatives as dual RET/TRKA inhibitors” (Bioorg Med Chem, 2024).
